From patent US20220380801A1, “TRIPARTITE SYSTEMS FOR PROTEIN DIMERIZATION AND METHODS OF USE” (AstraZeneca / MedImmune, published 2022)

B1: PRSIM_57 (scFv)
scFv: QVQLVQSGAEVKKPGSSVKVSCKASGGTFSSYAISWVRQAPGQGLEWMGGIIPIFGTANYAQKFQGRVTITADESTSTAYMELSSLRSEDTAVYYCARHTNYITVFDYWGQGTLVTVSSGGGGSGGGGSGGGGSAQSVLTQPPSASGTPGQRVTISCSGSSSNIGSNTVNWYQQLPGTAPKLLIYSNNQRPSGVPDRFSGSKSGTSASLAISGLQSEDEADYYCAAWDHHWEQVVFGGGTKLTVL
B2: PRSIM_23 (designed binder)
chain: RLDAPSQIEVKDVTDTTALITWVDPRYDDIWWFELTYGIKDVPGDRTTIKLYLNDPYYSIGNLKPDTEYEVSLISYTGDSYSRSGSNPAKITFKTGL

How the values were obtained:
[1] = target: T1, BSA, in the presence of simeprevir (UniProt P02769 25-607); assay: SPR (Biacore 8K): PRSIM_57 immobilised, BSA + 10 nM simeprevir injected
T1 construct: also called BSA control

[2] = target: T1, BSA, in the presence of simeprevir; assay: SPR (Biacore 8K): PRSIM_23 immobilised, BSA + 10 nM simeprevir injected

| Binder | binding result [1] | binding result [2] |
| --- | --- | --- |
| B1 | no binding |  |
| B2 |  | no binding |
